# Values quoted from earlier work in patent US9993488B2, “Dry powder formulations for inhalation” (OtiTopic Inc., priority 2014, dated 2018).
# Like-named read-outs stand apart in the source and are kept apart here.
# Conditions: cited from earlier work
substance,measurement,setting,value
insulin,"peak plasma levels, inhalation compared to injection",inhaled versus injected,nearly double
same,time to appearance in the circulation,inhaled,less than 30 minutes
same,time to appearance in the circulation,injected,about 90 minutes
